The values below come from patent publication US6916461B2, “Metal complexes that contain perfluoroalkyl, process for their production and their use in NMR diagnosis” (Schering AG, priority 1996, dated 2005).

For data set [1] the following is noted: rat, in vivo, iv; cited from earlier work.
The conditions of data set [2]: rat, in vivo.
The conditions of data set [3]: rat, in vivo; cited from earlier work.

For albumin-Gd-DTPA, the dose eliminated in data set [1] is 20 % of the dose.
On to polylysine-Gd-DTPA, for which, in data set [2], the “amount still contained in the body” value is 7 % of the original dose. In data set [3], the route of excretion entry is listed as “excreted unaltered by glomerular filtration via the kidney”.
